# Binding of CDR-mutated scFvs to a peptide of the spike HR2 region

Antigen: PDVDLGDISGINAS, a 14-residue peptide of the SARS-CoV-2 spike HR2 region.

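The starting antibody came from a phage panning campaign against this peptide. Designed CDR sequences, proposed from the first random library and measured here. Several design methods are mixed in this list. Affinity was read by AlphaSeq, a pooled yeast mating assay with surface-displayed partners. After mating in shaken culture at 30 °C for 16 h, diploids were selected and their barcode pairs sequenced. Scores were corrected for input abundance and mapped to Kd with protein pairs of known affinity run in the same pool. The assay was run in six technical replicates.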

Each scFv is VH, a (GGGGS)3 linker, VL, as in the parent Ab-14, and differs from it in the CDRs of the light chain only.
VH: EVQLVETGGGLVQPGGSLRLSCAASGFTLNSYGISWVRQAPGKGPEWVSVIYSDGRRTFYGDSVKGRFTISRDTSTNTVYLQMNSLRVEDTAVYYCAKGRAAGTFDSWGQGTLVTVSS
VL: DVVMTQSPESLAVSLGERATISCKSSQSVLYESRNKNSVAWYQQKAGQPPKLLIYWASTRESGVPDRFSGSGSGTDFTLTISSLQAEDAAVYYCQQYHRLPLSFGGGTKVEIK

Variants are written as CDR1, CDR2 and CDR3 of the light chain (limits as in the source). Parent: KSSQSVLYESRNKNSVA, WASTRES, QQYHRLPLS.
This list holds designs with more than six substitutions.
Values are log10 of the apparent Kd in nM; lower means stronger binding.
Replicates are averaged; those with no signal do not enter the mean.
"nd" marks a missing value. The strain was present, yet no cells mated with the target were sequenced in any replicate, which points to weak or no binding.
Three control strains display no target. For all light chain designs, 4% of the pairings with them gave a signal, with a median of 2.64 and one signal in twenty below 1.59, so weak values seen in few replicates may be background. Also given: how often the same scFv was detected with the empty control strains.

For QYSENLTIYDQEQGNVA | HGEMRTE | QQYHKLPLS, the assay gave 0.99 (6 of 6 replicates; controls 1 of 18).
For SLAESAHLETRNKNSVA | DNTTRES | QHYDRLPLS, the assay gave 2.00 (5 of 6 replicates; controls 4 of 18).
For QIYQAMHTLMQATNNVA | DVTNRNQ | QQYHRLPLS, the assay gave -0.03 (6 of 6 replicates; controls 0 of 18).
For MFSQGVMVGWLTRNSVA | NSETRES | QQYHRLPLS, the assay gave 1.07 (6 of 6 replicates; controls 0 of 18).
For TISQSAQMESHNKNSVA | DLNVRGS | QQYDRLPLS, the assay gave 0.52 (6 of 6 replicates; controls 1 of 18).
For KLSQSWSYEWRNKMSVA | NASQRLS | QQYHRLPLS, the assay gave 0.81 (6 of 6 replicates; controls 1 of 18).
For SLYENYANGSQHTNSVA | DANQMMR | QHYNRLPLA, the assay gave 1.16 (6 of 6 replicates; controls 0 of 18).
For KVSPSQLYWSRNKNAVA | QASTRET | QQYHRLPLS, the assay gave 0.37 (6 of 6 replicates; controls 2 of 18).
For HMSAVTMMGSRHRNSVA | QMTTREN | QQYDRLPLM, the assay gave 1.32 (6 of 6 replicates; controls 0 of 18).
For KLSSITGHMQVEKNNVA | EMETREN | QQYDRLPLS, the assay gave 0.84 (6 of 6 replicates; controls 0 of 18).
For KLQQSWEYESRNKNNVA | NGSQRED | QQYHRLPLS, the assay gave -0.06 (6 of 6 replicates; controls 0 of 18).
For KFSQTVLYESRNLNSVA | GAATTES | QQYARLPLS, the assay gave 0.17 (6 of 6 replicates; controls 0 of 18).
For HVSHQLRPGREIQNPIA | EGSHRAA | QQYDRLPLG, the assay gave 0.86 (6 of 6 replicates; controls 1 of 18).
For KISMMYRYESTASNSIA | EMTTRAE | QSYHRLPLS, the assay gave 0.64 (6 of 6 replicates; controls 4 of 18).
For TVSQVHEMLSHNKNSVA | DMNTREE | QQYDRLPLS, the assay gave 0.41 (6 of 6 replicates; controls 0 of 18).
For RLMGWGPDQIQHANSVA | DRDEVDM | QQYAHLPLS, the assay gave 1.85 (6 of 6 replicates; controls 0 of 18).
For KSSQSDLYESRNGNNVA | NGSTRMD | QQYHRLPLS, the assay gave 0.31 (6 of 6 replicates; controls 1 of 18).
For KITYMGEHFSTNHSAIA | QASTREQ | QQYHRLPIS, the assay gave 1.76 (6 of 6 replicates; controls 0 of 18).
For KLSQSELYESRCHNNVA | EASQRES | QQYHRLPLS, the assay gave 0.60 (6 of 6 replicates; controls 1 of 18).
For HVPNYTENFMSAKQNIA | DQSAKTS | QQYDRLPLA, the assay gave 0.65 (6 of 6 replicates; controls 1 of 18).
For KISQLVNFLGKNKYSVA | QMSTRED | QQYDRLPLS, the assay gave 0.83 (6 of 6 replicates; controls 0 of 18).
For HLYQSELYESRMKNSVA | NASTRLS | QQYHRLPLS, the assay gave 0.02 (6 of 6 replicates; controls 2 of 18).
For KISGPVQYESRNKNSVA | WGSIREK | QQYHSLPLS, the assay gave 0.71 (6 of 6 replicates; controls 1 of 18).
For MIAQGLRGVGRNKNSVA | NAQTREN | QHYHRLPLS, the assay gave 1.94 (6 of 6 replicates; controls 2 of 18).
For KLAMYTGHMSVSKNNVA | EMETRMN | QQYDRLPLS, the assay gave 0.08 (6 of 6 replicates; controls 1 of 18).
For MISQLWNMGTFAINSVA | QATIRNS | QQYDRLPLA, the assay gave 1.78 (6 of 6 replicates; controls 0 of 18).
For QLESLMGESYAYKENIA | EGEQRFS | QQYVRLPLH, the assay gave 1.11 (6 of 6 replicates; controls 0 of 18).
For QLQYDPGESLRSTHSIA | DVNIKDM | QQYARLPLA, the assay gave 0.19 (6 of 6 replicates; controls 0 of 18).
For KLYQMTGIESHAKNSLA | DANRREE | QQYHRLPLS, the assay gave -0.37 (6 of 6 replicates; controls 0 of 18).
For MISQLYNLGTFAINSVA | QASVRNE | QQYDRLPLQ, the assay gave 1.33 (6 of 6 replicates; controls 1 of 18).
For ALSDWEWAGEENINAVA | DRSALEW | QQYDRLPLS, the assay gave 1.36 (6 of 6 replicates; controls 0 of 18).
For HLLDTVMQGSYYRNSVA | QESTRAD | QQYHRLPLS, the assay gave 0.83 (6 of 6 replicates; controls 0 of 18).
For MVSQLMLWGMHVKNSIA | EAVTRLN | QQYDRLPLI, the assay gave nd (0 of 6 replicates; controls 0 of 18).
For MISQLYNMGSFAINSVA | QASLRNE | QQYDRLPLA, the assay gave 1.42 (6 of 6 replicates; controls 1 of 18).
For KMHTLMYTANIGENSVA | DANVHVD | QQYFRLPLS, the assay gave 0.93 (6 of 6 replicates; controls 1 of 18).
For QLLTGVTENAKNGKAIA | NHELKAQ | QQYFRLPFS, the assay gave 0.52 (6 of 6 replicates; controls 1 of 18).
For IISDLTMYGSRNVNSVA | DLSTRGS | QQYDRLPLS, the assay gave 0.84 (6 of 6 replicates; controls 0 of 18).
For TISSVMNHMTRIKNNVA | NQDMREA | QQYDRLPLS, the assay gave 0.41 (6 of 6 replicates; controls 0 of 18).
For IIAQLMYWGNKSANSIA | QASQRLN | QQYHHLPLT, the assay gave 1.86 (4 of 6 replicates; controls 0 of 18).
For NISESMYFQSRNNNNIA | EMSTRER | QHYHRLPLS, the assay gave 0.64 (6 of 6 replicates; controls 2 of 18).
For HISPLFMVESKLKNSVA | QTETRVE | QQYDRLPLS, the assay gave 0.68 (6 of 6 replicates; controls 1 of 18).

A sequence measured in both rounds can read differently, since the two assays cover different ranges.
The parent sequence was in this pool as ten entries: three were never detected, three once, and four in most replicates, with averages from 0.34 to 2.37.
The authors' rule: three or more of the six replicates give a measured affinity, fewer mean a poor binder.

Source: Li et al. 2023 (doi:10.1038/s41467-023-39022-2), MIT Lincoln Laboratory and A-Alpha Bio; data file from the FLAb repository.